Experimental data taken from publication PMC7703681 (Journal of medicinal chemistry, 2020).

Amino acid sequences for entries named in this document (tags omitted). A change or cut given only in a name is not applied to a line headed by its entry.
UniProt P10275: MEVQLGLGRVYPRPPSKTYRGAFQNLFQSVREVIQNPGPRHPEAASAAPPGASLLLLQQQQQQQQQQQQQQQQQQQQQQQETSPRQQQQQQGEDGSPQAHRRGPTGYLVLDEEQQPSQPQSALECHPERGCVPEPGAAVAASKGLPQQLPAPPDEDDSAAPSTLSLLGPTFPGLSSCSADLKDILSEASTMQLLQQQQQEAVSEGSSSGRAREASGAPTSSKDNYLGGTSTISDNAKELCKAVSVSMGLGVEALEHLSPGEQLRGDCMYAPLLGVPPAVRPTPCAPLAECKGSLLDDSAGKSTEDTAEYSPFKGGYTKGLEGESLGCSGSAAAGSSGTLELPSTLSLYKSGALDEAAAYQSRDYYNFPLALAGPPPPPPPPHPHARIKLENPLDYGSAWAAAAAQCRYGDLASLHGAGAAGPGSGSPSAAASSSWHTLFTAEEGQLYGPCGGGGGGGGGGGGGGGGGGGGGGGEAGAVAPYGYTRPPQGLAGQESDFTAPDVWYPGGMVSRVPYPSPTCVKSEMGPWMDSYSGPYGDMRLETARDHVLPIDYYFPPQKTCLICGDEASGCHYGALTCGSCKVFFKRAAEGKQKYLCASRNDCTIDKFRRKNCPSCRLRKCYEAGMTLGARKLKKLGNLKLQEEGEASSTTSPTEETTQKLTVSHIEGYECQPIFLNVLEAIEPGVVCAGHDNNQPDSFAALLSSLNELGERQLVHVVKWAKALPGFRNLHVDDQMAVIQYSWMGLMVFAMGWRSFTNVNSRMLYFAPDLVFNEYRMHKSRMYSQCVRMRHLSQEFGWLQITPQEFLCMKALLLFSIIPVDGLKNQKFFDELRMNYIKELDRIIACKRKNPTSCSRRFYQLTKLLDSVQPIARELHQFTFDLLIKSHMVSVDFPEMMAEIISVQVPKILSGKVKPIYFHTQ

Target: full-length wtAR (Homo sapiens, UniProt P10275)

## C[C@](O)(CNC(=O)c1cn[nH]c1)C(=O)Nc1ccc(C#N)c(C(F)(F)F)c1 [29f, (S)-N-(3-((4-Cyano-3-(trifluoromethyl)phenyl)amino)-2-hydroxy-2-methyl-3-oxopropyl)-1H-pyrazole-4-carboxamide]
  transactivation IC50: agonist
